Values of other authors in PMC7849054.

Tests used:
beta-endorphin [1] = target: beta-endorphin (UniProt P01189); assay: dPLIMSTEX
beta-endorphin [2] = target: beta-endorphin (UniProt P01189); assay: PLIMSTEX
[3] = target: melittin (Apis mellifera) (UniProt P01501)
[4] = target: melittin (Apis mellifera) (UniProt P01501); remark: listed apart in the source

In the case of Calmodulin (from UniProt P0DP23), the Kd (beta-endorphin [1]) is listed as 4900 nM, the Kd (beta-endorphin [2]) is listed as 4500 nM and the Kd [3] is listed as 3 nM. For the same substance, the Kd [4] was 4.6 nM.

Like-named read-outs stand apart in the source and are kept apart here.
